The values below are quoted from earlier work in US20020065326A1, “Patient oxygenation using stabilized fluorocarbon emulsions” (priority 1992, published 2002).

The conditions of this data set: organ retention half life; prior art / nonlipophilic fluorocarbons from literature; cited from earlier work.

Take F-dipipendine: the t½ is 24 days.

Usually t½ stands for how long it takes for the measured level to halve.
